Results: ChEMBL document CHEMBL5614425, “Novel inhibitors of bromodomain and extra-terminal domain trigger cell death in breast cancer cell lines” (2024)
Activity calls are given as the source filed them. The rule behind the calls is not given here.

target: T1, NAD-dependent protein deacetylase sirtuin-2 (Homo sapiens) (UniProt Q8IXJ6); test: Inhibition of SIRT2 (unknown origin) using IU179 as substrate incubated for 30 mins by Fluor de Lys sirtuin assay relative to control
T1 sequence (whole entry): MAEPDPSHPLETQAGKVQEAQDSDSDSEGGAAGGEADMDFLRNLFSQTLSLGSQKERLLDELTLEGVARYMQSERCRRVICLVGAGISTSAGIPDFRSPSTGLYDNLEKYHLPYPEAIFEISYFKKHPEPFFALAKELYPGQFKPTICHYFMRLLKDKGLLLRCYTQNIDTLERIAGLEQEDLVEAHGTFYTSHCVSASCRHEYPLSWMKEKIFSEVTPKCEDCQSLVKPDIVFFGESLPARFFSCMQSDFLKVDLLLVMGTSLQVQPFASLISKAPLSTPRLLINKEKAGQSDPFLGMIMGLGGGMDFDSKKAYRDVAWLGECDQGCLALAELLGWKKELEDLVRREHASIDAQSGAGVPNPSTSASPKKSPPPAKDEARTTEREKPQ

inhibition, inactive:
Cc1noc(C)c1NC(=O)COc1ccc2c(c1)CCC(=O)N2
Cc1cc(NC(=O)c2ccc(O)c(Cl)c2)ccc1N1CCCC1=O
CC(=O)c1c(C)[nH]c(C(=O)Nc2ccc3c(c2)CCO3)c1C
